# From patent publication US20230027592A1
# Biological target: Bovine serum albumin (bovine) (UniProt P02769)
substance,measurement,value
"Chymotrypsin protease (Sequencing Grade, Promega V106A) (from UniProt P00766) (enzyme)",BSA sequence coverage after digestion (nLC-MS/MS) (% BSA sequence coverage),90.2
